# Yeast mating assay 1: variants of the scFv Ab-14

Reference: Engelhart et al. 2022, doi:10.1038/s41597-022-01779-4. File: FLAb, binding data.

Antigen: PDVDLGDISGINAS, a 14-residue peptide of the SARS-CoV-2 spike HR2 region.

Parent: Ab-14, a human scFv built as VH, a (GGGGS)3 linker, VL. Only the CDRs of the light chain vary.
VH: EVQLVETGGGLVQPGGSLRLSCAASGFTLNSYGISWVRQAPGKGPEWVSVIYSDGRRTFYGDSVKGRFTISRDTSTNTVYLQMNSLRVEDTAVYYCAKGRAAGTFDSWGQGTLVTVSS
VL: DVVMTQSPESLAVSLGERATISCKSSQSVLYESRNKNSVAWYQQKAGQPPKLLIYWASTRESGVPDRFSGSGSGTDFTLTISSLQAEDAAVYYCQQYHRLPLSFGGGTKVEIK

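The starting antibody came from a phage panning campaign against this peptide. Variants in AAYL50 differ from the parent at up to three CDR positions; double and triple changes were sampled at random. The assay is AlphaSeq: two haploid yeast populations carry antibody and antigen on their surface. The frequency of each diploid, read from paired DNA barcodes, reflects how well the two displayed proteins bind. Scores were corrected for input abundance and mapped to Kd with protein pairs of known affinity run in the same pool. Each pool was mated in three replicate cultures.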

Variants are written as CDR1, CDR2 and CDR3 of the light chain (limits as in the source). Parent: KSSQSVLYESRNKNSVA, WASTRES, QQYHRLPLS. Values are log10 of the apparent Kd in nM; lower means stronger binding. The mean shown is taken over the replicates in which the pair was detected. An entry "nd" has no value in the source: the pair was not observed among the diploids in any replicate. This suggests poor binding but is not conclusive. Nonspecific signal, from three strains lacking the peptide, appeared in 18% of pairings of library AAYL50, centred on 4.19 (5% of these signals below 2.99); values are not corrected for it. Parent in this assay: reference entry 0.65, copy in this library 1.68.

CDR-L1,CDR-L2,CDR-L3,mean log10 Kd (nM),seen in
KSSQCILYESRNKNSVA,WATTRES,QQYHRLPLS,3.05,1 of 3
KLSQSVLYESRNKTSVA,WASTRES,QHYHRLPLS,1.24,3 of 3
KSSQSVLYESKNKNSVA,WASTRES,QAYHRLPLS,1.67,3 of 3
KCSQSVLYELPNKNSVA,WASTRES,QQYHRLPLS,0.86,3 of 3
KSSISVLYESRNKNSVA,WASTRES,QQYHRLALA,4.03,3 of 3
KSSQMVLYESRNVNSVA,WACTRES,QQYHRLPLS,3.07,1 of 3
KSGQSVLYESRNKQSVA,WASTRES,QTYHRLPLS,1.96,3 of 3
KSSQVRLEESRNKNSVA,WASTRES,QQYHRLPLS,0.98,3 of 3
KSSQSCQYESRNKNSVA,WANTRES,QQYHRLPLS,1.10,3 of 3
KSSQSTLYESRNKNSVA,WYSTHES,QQYHRLPLS,nd,0 of 3
KSSQSVLYESRNKNVVA,WISTSES,QQYHRLPLS,4.91,3 of 3
KSSQSVLYESRNKKSVA,WAGTRES,QQYHRLYLS,nd,0 of 3
KSSQTVGYESRNKNVVA,WASTRES,QQYHRLPLS,nd,0 of 3
KSSQSVLYISRNKNSVA,WASTRES,QQYQRLPGS,3.41,3 of 3
KSSQSVLYESRNKNSNA,WASTRES,QPYHRLPLH,nd,0 of 3
KSSQEVLYERRNKNSVA,HASTRES,QQYHRLPLS,0.83,3 of 3
LSSQSVLYESRNKNSVA,WASTRES,WQYHLLPLS,nd,0 of 3
KSSQSVLYESDNKNSGA,WASTRES,QQYTRLPLS,1.82,3 of 3
KSSQSVLYWSRVKNSVA,WASTRES,QQYNRLPLS,1.27,3 of 3
KSSQSVLYESRNKNSVA,WASTRQS,QQYHRLPQN,nd,0 of 3
YMSQSVLYESRNKNSVA,WASTRES,QQHHRLPLS,4.22,3 of 3
KSSQSVLYESRNKNSVH,QASTRES,EQYHRLPLS,nd,0 of 3
KSSQSVLYESRNKNSVA,WASASES,QKYHRLPLS,4.95,1 of 3

The remaining entries, values ahead:

mean log10 Kd (nM),seen in,CDR-L1,CDR-L2,CDR-L3
2.38,3 of 3,KSSRSVLYESRNKNSVA,WASTRKS,QQYHRLPLR
3.77,2 of 3,DSSQSVLYESRNGNSVA,WNSTRES,QQYHRLPLS
nd,0 of 3,KSSQSVLYEWRNKNSVA,WASTRES,QVYHRLPLS
4.85,2 of 3,KSSQSVLYESRNKCAVA,WASTRES,QQYHRLPLS
nd,0 of 3,KSIQSVLYESRNHNSTA,WASTRES,QQYHRLPLS
0.58,3 of 3,KSSQSVLYEQTRKNSVA,WASTRES,QQYHRLPLS
1.70,3 of 3,KSYQSVLYESRFKNSVA,WASTRES,QQYHRLHLS
nd,0 of 3,KSSQSVLYESRNKNSVA,WRSTRES,GQYSRLPLS
nd,0 of 3,KSSQSVVYESRNKNSPA,WASTQES,QQYHRLPLS
nd,0 of 3,KSSQSVLYESRNKNSVM,WASTNES,QQYHRLPMS
3.83,2 of 3,KSSQSVLYESRNTNDEA,WASTRES,QQYHRLPLS
2.84,1 of 3,KSSQSVLYETRNKNSVA,WASTRES,QNYHRLPES
1.15,3 of 3,KSSQSVLYESRNKNVVA,WASHRES,QQYHRDPLS
0.87,3 of 3,KSSDSVLYESRNKNSVA,WASTRFS,QQYARLPLS
3.42,1 of 3,KSSQSVLYESRNKVSVA,YASTRES,QQEHRLPLS
4.03,3 of 3,KSRQSVLYESRNMNSVD,WASTRES,QQYHRLPLS
2.65,3 of 3,KSSQSVLNESPNKNSVA,IASTRES,QQYHRLPLS
0.72,3 of 3,KSSASVLYESRNSNSVA,WASTRES,LQYHRLPLS
3.68,1 of 3,KSPQSVLYESRNKNSVA,WRSTRES,QNYHRLPLS
3.34,1 of 3,KSSQSVLYELRNKNSWA,WADTRES,QQYHRLPLS
6.07,1 of 3,KSSQKVLYESWNKNSVA,WASTEES,QQYHRLPLS
0.85,3 of 3,KSSQEVLYHSRNVNSVA,WASTRES,QQYHRLPLS
3.66,1 of 3,KSSQSVLTESTNKNSVA,WASTNES,QQYHRLPLS
2.28,3 of 3,KSSQSVLYEDRGKNSVA,WASTRES,GQYHRLPLS

The last 3 entries again:

CDR-L1,CDR-L2,CDR-L3,mean log10 Kd (nM),seen in
KSSQEVLYHSRNVNSVA,WASTRES,QQYHRLPLS,0.85,3 of 3
KSSQSVLTESTNKNSVA,WASTNES,QQYHRLPLS,3.66,1 of 3
KSSQSVLYEDRGKNSVA,WASTRES,GQYHRLPLS,2.28,3 of 3